Test results published in patent US11504364B2, “Inhibitors of fibroblast activation protein” (Praxis Biotech LLC, priority 2018, dated 2022).

Chains of the proteins cited; added tags and fusions are not shown. Lines headed by an entry give the natural chain unless they say otherwise; changes in a name come on top.
UniProt P28843: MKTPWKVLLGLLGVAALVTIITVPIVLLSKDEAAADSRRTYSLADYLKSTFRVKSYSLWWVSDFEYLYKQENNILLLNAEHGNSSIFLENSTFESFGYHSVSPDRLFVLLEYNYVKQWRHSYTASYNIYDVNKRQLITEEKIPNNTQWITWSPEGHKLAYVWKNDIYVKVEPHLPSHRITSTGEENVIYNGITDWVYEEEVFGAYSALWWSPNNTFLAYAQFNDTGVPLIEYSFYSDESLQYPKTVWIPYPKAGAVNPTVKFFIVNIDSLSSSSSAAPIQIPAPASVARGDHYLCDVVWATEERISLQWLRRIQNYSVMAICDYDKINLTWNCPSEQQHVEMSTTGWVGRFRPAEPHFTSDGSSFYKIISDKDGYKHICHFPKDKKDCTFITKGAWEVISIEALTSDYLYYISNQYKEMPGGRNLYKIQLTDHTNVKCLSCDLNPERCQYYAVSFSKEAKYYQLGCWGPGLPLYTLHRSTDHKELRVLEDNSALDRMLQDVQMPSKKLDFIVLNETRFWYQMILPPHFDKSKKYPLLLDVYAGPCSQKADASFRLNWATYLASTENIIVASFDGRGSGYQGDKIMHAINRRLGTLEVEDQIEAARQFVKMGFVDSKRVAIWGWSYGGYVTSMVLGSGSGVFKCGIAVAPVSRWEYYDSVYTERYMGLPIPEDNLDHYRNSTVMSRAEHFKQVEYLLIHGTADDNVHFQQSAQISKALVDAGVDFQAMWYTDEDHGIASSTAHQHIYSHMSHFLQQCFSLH

Experiments:
[1] = molecular target: recombinant mouse DPPIV (rmDPPIV) (Mus musculus (Mouse), UniProt P28843); assay: DPPIV enzymatic activity assay; format: biochemical; conditions: Table 3A
[2] = system: human AML cell line MV4-11; assay: Cytotoxicity assay in human leukemia cell lines (Cell-Titer Glo); conditions: MV4-11, 48 h, read-out: MV4-11 viability IC50, μM

CC(C)[C@H](N)C(=O)N1CCC[C@H]1B(O)O [Val-boroPro]
IC50 [1]: < 1 µM

N#C[C@@H]1CC(F)(F)CN1C(=O)CNC(=O)c1ccnc2ccc(/C=C/c3ccc4ncccc4c3)cc12 [Compound 105]
IC50 [2]: < 3 µM
